According to patent publication US20240024479A1, “NK CELLS OR T CELLS EXPRESSING CHIMERIC HEMATOPOIETIC GROWTH FACTOR RECEPTORS AND METHODS OF USE” (The United States of America, as represented by the …, priority 2020, published 2024):

Key:
[1] = system: EPOR+ NK-92 cells; experiment: Flow cytometry of cell signaling and anti-apoptotic proteins, EPOR+ NK-92; type: cell-based, human
Experimental: (§1) Staining was performed in phosphate-buffered saline (PBS) with 2% FBS and 2 mM EDTA and analyzed on a BD LSRFortessa machine. If intracellular staining was required, BD cytofix/cytoperm (BD Biosciences) was applied for cell fixation and permeabilization after surface staining. The apoptosis assay was performed using PE annexinV apoptosis detection kit (BD Biosciences). The data were analyzed on FlowJo software.
(§2) Expression of target proteins was evaluated afterward by flow cytometry as described above.

[2] = system: c-MPL+ NK-92 cells; experiment: Flow cytometry of cell signaling and anti-apoptotic proteins, c-MPL+ NK-92; type: cell-based, human
Source text: Flow cytometry, reagents and pathway analysis: Fluorochrome-conjugated monoclonal antibodies were used as follows: BD Biosciences: CD56-PE-Cy7 (NCAM16.2), CD3-PE (UCHT1), c-MPL-PE (1.6.1), STAT5(pY694)-Alexa Fluor647 (47/stat5(pY694)), NKp46-APC (9E2), NKp44-PE (p44-8), FAS-PE (DX2) CD62L-V450 (DREG-56); R&D systems: EPOR-PE (FAB307P); Biolegend: Bc1-2-PE (100), TRAIL-APC (RIK-2), CXCR4-BV421 (12G5), KIR3DL1-BV421 (DX9); Abcam: Bcl-xL-PE (ab208747); Cell signaling technology: P-p44/42 MAPK-Alexa Fluor647 (E10) and p-S6 ribosomal protein-PE (D57.2.2E); Beckman Coulter: NKG2A-PE (Z199), KIR2DL1/S1-PE (EB6B), KIR2DL2/3-PE/Cy5.5 (GL183). Staining was performed in phosphate-buffered saline (PBS) with 2% FBS and 2 mM EDTA and analyzed on a BD LSRFortessa machine. If intracellular staining was required, BD cytofix/cytoperm (BD Biosciences) was applied for cell fixation and permeabilization after surface staining. The apoptosis assay was performed using PE annexinV apoptosis detection kit (BD Biosciences). The data were analyzed on FlowJo software.
as §2

[3] = system: Raji tumor cells; experiment: Flow cytometry based killing assay, c-MPL+ NK-92 effectors vs Raji; type: cell-based, human
Experimental: The target cells were labeled with 1 μM cell trace violet in some experiments (Thermo Fisher Scientific). The effector and target cells were incubated together in duplicate wells at specific E:T ratio in complete medium without cytokines for 4 hours (total cell number: 200,000 to 250,000 per well in 96-well plate). 7-AAD and Sphero AccuCount Fluorescent particles (Spherotech, IL) were added before analysis by flow cytometry. The absolute number of viable 7-AAD negative target cells was calculated according to bead numbers added (Cooper et al., Leukemia 32:1970-1983, 2018). The percentage of dead cells was calculated relative to target cell only control wells.

[4] = system: EPOR+ NK-92 cells; experiment: Short-term expansion and apoptosis assay, EPOR+ NK-92; type: cell-based, human; details: IL-2 200 U/ml alone vs LD IL-2 alone; day 3
Experimental: In vitro cell expansion cultures: The NK-92 (5×10^4 cell/ml) and KHYG-1 (1×10^4 cell/ml) cells were cultured in 1 ml of complete medium in 24-well plate. […] Trypan blue negative cells were counted every other day. […] For competitive primary NK and T cell expansion assay, all transduced cells (5×10^5/ml for NK and 4×10^5/ml for T cell) containing a mixture of GFP positive (transduced) and GFP negative (untransduced) cells were plated on day 0. Fresh medium with appropriate supplements was replaced every other day for NK cells and only on day 3 for T cell experiment. Viable cells were counted and percentage of GFP^+ cells was acquired on indicated days (NK: day 4 and 6, T: day 3 and 6). The fold change of GFP^+ cells was calculated by multiplying the counted cell number times the fraction GFP^+.
as §1

[5] = system: GFP+ MPL+ NK cells; experiment: Degranulation assay and cytokine production, c-MPL-transduced primary NK cells with K562; type: cell-based, human; details: 4 days, K562 1:1
Experimental: To examine degranulation, cells were washed after two hours and stained with anti-CD107a (H4A3) (BioLegend). To assay cytokine production, GolgiPlug and GolgiStop (BD Biosciences) were added at manufacturer's recommended concentrations within the first hour of co-culture with K562. After 4 hours, cells were washed and stained for cell surface markers, then stained intracellularly with mAb recognizing TNF-α (Mab 11) and IFN-γ (B27) (BD Biosciences).

[6] = system: EPOR+ NK-92 cells; experiment: In vitro cell expansion of EPOR+ NK-92 cells; type: cell-based, human; details: day 8; 5 U/ml of IL-2 alone
Source text: Lentiviral production and transduction: Lentivirus gene expression vectors encoding EGFP-P2A linker-human EPOR or EGFP-P2A-human c-MPL were cloned according to our design by VectorBuilder (TX, USA). Plasmid DNA for the above and pCMV-dR8.2 dvpr and pCMV-VSV-G packaging plasmids was purified using ZymoPUREII-EndoZero plasmid maxiprep kit (Zymo Research, CA). Lentiviral particles were generated with HEK293T cells and Lipofectamine3000 reagent (Thermo Fisher Scientific, MA) following the manufacturers' instructions. Viral supernatant was harvested at 24 and 48 hours, pooled, and concentrated with lenti-X concentrator (Takara Bio, Japan) or by centrifugation at 18,600 rpm for 2 hours at 4° C. […] After 5 days post-transduction, cells were stained and sorted with fluorescence-activated cell sorting (FACS) using a BD FACSAria II to purify GFP^+EPOR^+ and GFP^+c-MPL^+ NK cell populations.
In vitro cell expansion cultures: The NK-92 (5×10^4 cell/ml) and KHYG-1 (1×10^4 cell/ml) cells were cultured in 1 ml of complete medium in 24-well plate. […] Trypan blue negative cells were counted every other day. […] Viable cells were counted and percentage of GFP^+ cells was acquired on indicated days (NK: day 4 and 6, T: day 3 and 6). The fold change of GFP^+ cells was calculated by multiplying the counted cell number times the fraction GFP^+.

[7] = system: c-MPL+ NK-92 cells; experiment: Short-term expansion and apoptosis assay, c-MPL+ NK-92; type: cell-based, human; details: IL-2 200 U/ml alone vs LD IL-2 alone; day 3
Experimental: In vitro cell expansion cultures: The NK-92 (5×10^4 cell/ml) and KHYG-1 (1×10^4 cell/ml) cells were cultured in 1 ml of complete medium in 24-well plate. […] Trypan blue negative cells were counted every other day. […] The short-term cell expansion assay was performed in similar fashion, except cells were initially cultured without IL-2 overnight before adding different cytokines and enumerating the cell number. For competitive primary NK and T cell expansion assay, all transduced cells (5×10^5/ml for NK and 4×10^5/ml for T cell) containing a mixture of GFP positive (transduced) and GFP negative (untransduced) cells were plated on day 0. Fresh medium with appropriate supplements was replaced every other day for NK cells and only on day 3 for T cell experiment. Viable cells were counted and percentage of GFP^+ cells was acquired on indicated days (NK: day 4 and 6, T: day 3 and 6). The fold change of GFP^+ cells was calculated by multiplying the counted cell number times the fraction GFP^+. […]

[8] = system: GFP+ MPL+ cells; experiment: Persistence of transduced human NK cells in immunodeficient mice; type: in vivo, NSG mice; details: mice administered IL-2 10,000 IU/mouse daily, 4 days
Source text: Cells were maintained in IL-2-containing medium for 3-4 additional days and averaged approximately 20% GFP^+. Both populations were then mixed at a 1:1 ratio immediately before injection intravenously into NSG mice (such that GFP^+ MPL^+ cells and GFP^+ CD34^+ cells each constituted ˜10% of the mixed cells). Each mouse received 2.2×10^7 total human NK cells. […] MPL-transduced NK cells were identified as GFP^+ MPL^+ while CD34-transduced NK cells were gated as GFP^+ CD34^+. The frequency of transduced cells is presented (FIG. 14A) as a percentage of MHC-I^+ human cells isolated from organs or (FIG. 14B) as percent of total live mononuclear cells recovered from each organ. The legend applies to both FIGS. 14A and 14B. Data from 9 mice per group are shown with NK cells derived from 3 human blood donors. […]
Persistence of transduced human NK cells in immunodeficient mice: NK cells from human PBMC were transduced with matched lentiviral vectors encoding GFP/MPL or GFP/CD34 then mixed at a 1:1 ratio and injected intravenously into NSG mice (2.2×10^7 total cells/mouse). […] The presence of transduced human cells was quantified in various organs via flow cytometry using antibodies to human MHC class I (W6/32) (BioLegend), c-MPL (1.6.1), CD34 (581) (BD BioSciences), GFP-fluorescence, and Live/Dead Aqua viability dye (Thermo Fisher).

IL-2: recombinant human (rh) IL-2 (Roche)
pSTAT5 and pS6 levels ([1]; IL-2, up to 200 U/ml): increased pSTAT5 and pS6 levels in a dose dependent manner
phospho-p44/42 MAPK expression ([1]; cultures supplemented with IL-2 or EPO, 15 minutes): No alteration
pSTAT5 and pS6 levels ([2]; IL-2, up to 200 U/ml): increased pSTAT5 and pS6 levels in a dose dependent manner
pS6 expression ([2]; LD IL-2 alone): 7.16
phospho-p44/42 MAPK expression ([2]; cultures supplemented with IL-2 or TPO, 15 minutes): No alteration
mean percentage of dead Raji cells ([3]; c-MPL+ NK-92, IL-2 200 U/ml alone, E:T 1:1): 58%
mean percentage of dead Raji cells ([3]; c-MPL+ NK-92, IL-2 200 U/ml alone, E:T 10:1): 67%
mean percentage of dead Raji cells ([3]; c-MPL+ NK-92, LD IL-2 alone, E:T 1:1): 51%
mean percentage of dead Raji cells ([3]; c-MPL+ NK-92, LD IL-2 alone, E:T 10:1): 62%
proportion of dead/apoptotic cells [4]: significantly lower proportions of dead/apoptotic cells
degranulation in GFP+ MPL+ NK cells (CD107a) ([5]; 25 U/ml of IL-2 alone): 48%
degranulation in GFP+ MPL+ NK cells (CD107a) ([5]; 500 U/ml IL-2): 86%
fold expansion of EPOR+ NK-92 cells [6]: 4.75 fold
proportion of dead/apoptotic cells [7]: significantly lower proportions of dead/apoptotic cells
proportions of GFP+ MPL+ and GFP+ CD34+ cells among human cells [8]: roughly equal proportions
